Where two headings read alike, the source gives them in different places.

Sequences of proteins named here, by UniProt entry; tags and fusion partners are left off.
UniProt P35372, whole entry: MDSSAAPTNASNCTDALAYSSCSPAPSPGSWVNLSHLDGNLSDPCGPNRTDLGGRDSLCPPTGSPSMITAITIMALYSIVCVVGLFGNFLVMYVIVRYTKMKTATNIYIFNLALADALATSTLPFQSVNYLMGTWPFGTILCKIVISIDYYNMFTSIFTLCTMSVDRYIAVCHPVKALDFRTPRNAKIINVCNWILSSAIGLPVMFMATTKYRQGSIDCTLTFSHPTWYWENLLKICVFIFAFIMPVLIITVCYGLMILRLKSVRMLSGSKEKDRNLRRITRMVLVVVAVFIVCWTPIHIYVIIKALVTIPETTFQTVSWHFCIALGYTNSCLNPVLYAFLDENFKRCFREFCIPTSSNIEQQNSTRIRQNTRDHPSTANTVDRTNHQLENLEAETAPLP
UniProt P41143, whole entry: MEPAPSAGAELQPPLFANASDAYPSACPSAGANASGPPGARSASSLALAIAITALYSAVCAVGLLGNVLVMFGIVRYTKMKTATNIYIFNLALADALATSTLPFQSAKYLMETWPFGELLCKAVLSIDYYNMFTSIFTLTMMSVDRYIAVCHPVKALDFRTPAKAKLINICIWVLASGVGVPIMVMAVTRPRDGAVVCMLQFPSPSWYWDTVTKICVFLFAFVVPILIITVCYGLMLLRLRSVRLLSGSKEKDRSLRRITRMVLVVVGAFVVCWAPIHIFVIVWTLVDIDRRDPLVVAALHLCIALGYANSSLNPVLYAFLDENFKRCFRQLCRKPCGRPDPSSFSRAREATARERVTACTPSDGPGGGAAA
UniProt P41145, whole entry: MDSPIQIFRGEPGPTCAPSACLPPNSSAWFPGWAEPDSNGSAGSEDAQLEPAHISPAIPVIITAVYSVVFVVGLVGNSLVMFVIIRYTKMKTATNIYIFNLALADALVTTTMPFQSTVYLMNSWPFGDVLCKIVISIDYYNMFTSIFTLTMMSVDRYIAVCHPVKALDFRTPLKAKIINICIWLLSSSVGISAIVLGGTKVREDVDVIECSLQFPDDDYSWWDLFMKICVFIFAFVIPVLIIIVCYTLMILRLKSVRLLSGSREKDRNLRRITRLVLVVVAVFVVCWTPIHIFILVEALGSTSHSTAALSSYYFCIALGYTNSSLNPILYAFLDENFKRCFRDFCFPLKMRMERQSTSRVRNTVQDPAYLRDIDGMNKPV

These results are taken from patent publication US7615651B2, “Diaryl, dipyridinyl and aryl-pyridinyl derivatives and uses thereof” (Pfizer Inc., priority 2006, dated 2009).

Common to all, as to type: biochemical
Common to all, as to settings: average Ki

One assay concerns the target opioid receptor mu (Homo sapiens, UniProt P35372). Put plainly: GTPγ[35S] binding assay, antagonism of endorphin.
Another assay has as its target opioid receptor delta (Homo sapiens, UniProt P41143). The assay can be described thus: GTPγ[35S] binding assay, antagonism of BW-373U86. A general note: Binding of GTPγS marks nucleotide exchange on a G protein.
Another assay has as its target opioid receptor kappa (Homo sapiens, UniProt P41145). Put plainly: GTPγ[35S] binding assay, antagonism of dynorphin-A.

`CCOC(=O)N1CCN(Cc2ccc(-c3cccc(C(N)=O)c3)c(Cl)c2)CC1`: the Ki at opioid receptor mu (read-out: Mu functional Ki (GTPγ[35S] binding), antagonism of endorphin (1 μM) at mu opioid receptor membranes, tested form: TFA salt) worked out at 67.6 nM; at opioid receptor delta (read-out: Delta functional Ki (GTPγ[35S] binding), antagonism of BW-373U86 (1 nM) at delta opioid receptor membranes, tested form: TFA salt), 0.627 nM; at opioid receptor kappa (read-out: Kappa functional Ki (GTPγ[35S] binding), antagonism of dynorphin-A (10 nM) at kappa opioid receptor membranes, tested form: TFA salt), 85.4 nM.
With `CC(C)OCCNCc1ccc(-c2cccc(C(N)=O)c2)c(Cl)c1`, the Ki at opioid receptor mu (read-out: Mu functional (GTPγ[35S] binding Ki), antagonism of endorphin (1 μM) stimulated GTPγ[35S] binding, mu opioid receptor membranes, tested form: HCl) stood at 11.1 nM; at opioid receptor delta (read-out: Delta functional (GTPγ[35S] binding Ki), antagonism of BW-373U86 (1 nM) stimulated GTPγ[35S] binding, delta opioid receptor membranes, tested form: HCl) it was 5.23 nM; at opioid receptor kappa (read-out: Kappa functional (GTPγ[35S] binding Ki), antagonism of dynorphin-A (10 nM) stimulated GTPγ[35S] binding, kappa opioid receptor membranes, tested form: HCl), 41.2 nM.
